# Test results as given in the SangsterLogP compilation.
smiles,measurement,value
CC[C@H]1OC(=O)[C@H](C)[C@@H](O[C@H]2C[C@@](C)(OC)[C@@H](O)[C@H](C)O2)[C@H](C)[C@@H](O[C@@H]2O[C@H](C)C[C@H](N(C)C)[C@H]2O)[C@](C)(OC)C[C@@H](C)C(=O)[C@H](C)[C@@H](O)[C@]1(C)O,logP,3.16
